Assay results reported in patent publication US6534546B1 (Chugai Seiyaku Kabushiki Kaisha, priority 1994, dated 2003).

Assays:
[1] = target: iNOS (Type 2) (Rattus norvegicus, UniProt Q06518); settings: index of selectivity
[2] = target: N-cNOS (Type 1) (Rattus norvegicus, UniProt P29476); assay: NOS activity, conversion of L-[3H]arginine to L-[3H]citrulline, crude N-cNOS enzyme from rat cerebral cortex; settings: index of selectivity

Row | Compound | Ratio of IC50 values E-cNOS/iNOS [1] | Ratio of IC50 values E-cNOS/N-cNOS [2] | Ratio of IC50 values iNOS/N-cNOS [2]
1 | N=C(NN)NCCC[C@H](N)C(=O)O | 0.1 | 1.1 | 8.4
2 | CCN=C(N)Nc1cccc(C2(N)CCCCC2)c1.Cl.Cl [Example 234, N-(1-(3-(N′-ethylguanidino)phenyl)cyclohexyl)amine dihydrochloride] | – | 13.1 | –
3 | CSC(=N)Nc1cccc(C2(N)CCCCC2)c1.Cl.Cl [Example 142, N-(1-(3-(S-methylisothioureido)phenyl)cyclohexyl)amine dihydrochloride] | – | 15.1 | –
4 | CCSC(=N)Nc1ccc(CCN)c(OC)c1.Cl.Cl [Example 482, N-(2-(4-(S-ethylisothioureido)-2-methoxyphenyl)ethyl)amine dihydrochloride] | – | 50.2 | –
5 | CCSC(=N)Nc1cccc(C2(N)CCCCC2)c1.Cl.Cl [Example 144, N-(1-(3-(S-ethylisothioureido)phenyl)cyclohexyl)amine dihydrochloride] | – | 24.0 | –
6 | CCSC(=N)Nc1ccc(CC(C)(C)N)cc1.Cl.Cl [Example 193, N-(1,1-dimethyl-2-(4-(S-ethylisothioureido)phenyl)ethyl)amine dihydrochloride] | – | 12.1 | –
7 | CCN=C(N)Nc1ccc(CCN)c(F)c1.Cl.Cl [Example 258, N-(2-(4-(N′-ethylguanidino)-2-fluorophenyl)ethyl)amine dihydrochloride] | – | 14.9 | –
8 | Cl.NC(=N[N+](=O)[O-])Nc1cccc(C2(N)CCCCC2)c1 [Example 169, N-(1-(3-(N′-nitroguanidino)phenyl)cyclohexyl)amine hydrochloride] | – | 3.0 | –
